# Measurements reported in paper PMC4677984, “Activation of Muscarinic M1 Acetylcholine Receptors Induces Long-Term Potentiation in the Hippocampus” (Cerebral Cortex (New York, NY), 2015).
# Sequences of proteins named here, by UniProt entry; tags and fusion partners are left off. A change or cut given only in a name is not applied to a line headed by its entry.
# UniProt P12657: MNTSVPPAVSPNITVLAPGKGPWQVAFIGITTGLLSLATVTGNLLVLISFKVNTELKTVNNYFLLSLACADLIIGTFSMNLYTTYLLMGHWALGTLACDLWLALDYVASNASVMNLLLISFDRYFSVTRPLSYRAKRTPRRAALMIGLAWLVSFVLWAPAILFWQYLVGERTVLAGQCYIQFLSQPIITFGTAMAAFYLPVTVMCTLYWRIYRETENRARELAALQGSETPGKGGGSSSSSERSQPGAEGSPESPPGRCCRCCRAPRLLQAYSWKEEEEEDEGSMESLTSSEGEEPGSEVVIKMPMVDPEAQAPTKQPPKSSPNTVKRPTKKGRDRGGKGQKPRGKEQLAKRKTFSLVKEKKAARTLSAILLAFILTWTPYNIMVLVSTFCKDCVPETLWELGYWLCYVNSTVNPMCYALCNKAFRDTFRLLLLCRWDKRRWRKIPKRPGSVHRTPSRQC
# Target: mouse native M1Rs (Mus musculus, UniProt P12657)
# Details: read-out: EC50 for Gαq activation; WT hippocampus membranes
# Description: All procedures were performed at 4°C. […] Homogenate was centrifuged at 1000×g for 10 min and supernatant collected, the pellet was rehomogenized and centrifuged again, as above, and supernatant pooled and centrifuged at 11 000×g for 20 min. The resulting pellet was suspended in a final storage buffer (10 mM HEPES, 1 mM EGTA, 1 mM MgCl2, 1 mM DTT; pH 7.4) and centrifuged at 27 000×g for 20 min. Supernatant was removed and the final pellet suspended in 2 mL of final storage buffer. Protein concentration was measured using the Bradford method ([Bradford 1976]) (Coomassie Plus, Bio-Rad protein assay kit) with bovine gamma globulin standards. Samples were then aliquoted and stored at −80°C.
# GTPɣ[^35S] binding in mouse WT and M1 KO hippocampal membranes were determined in triplicate using an antibody capture technique in 96-well plate format ([DeLapp et al. 1999]). Membrane aliquots (15 µg/well) from WT or M1 KO C57BL6/NTac mice were incubated with test compound and GTPɣ[^35S] (500 pM/well) for 30 min. […] Plates were left to incubate for 3 h and then centrifuged for 10 min at 2000 rpm. Plates were counted for 1 min/well using a Wallac MicroBeta Trilux scintillation counter (PerkinElmer). […]
# For data analysis, relative EC50 and IC50 values were calculated using a 4-parameter logistic curve (GraphPad Prism v6).
substance,measurement,value
oxotremorine M,EC50,171 nM
